The numbers were not newly measured in patent US20100286271A1, “Nitro-alkyl Compound Compositions” (priority 2009, published 2010), which cites them from elsewhere.

Sequences of proteins named here, by UniProt entry; tags and fusion partners are left off. Residues count along the entry.
UniProt P80457, 2-1332 limits assumed: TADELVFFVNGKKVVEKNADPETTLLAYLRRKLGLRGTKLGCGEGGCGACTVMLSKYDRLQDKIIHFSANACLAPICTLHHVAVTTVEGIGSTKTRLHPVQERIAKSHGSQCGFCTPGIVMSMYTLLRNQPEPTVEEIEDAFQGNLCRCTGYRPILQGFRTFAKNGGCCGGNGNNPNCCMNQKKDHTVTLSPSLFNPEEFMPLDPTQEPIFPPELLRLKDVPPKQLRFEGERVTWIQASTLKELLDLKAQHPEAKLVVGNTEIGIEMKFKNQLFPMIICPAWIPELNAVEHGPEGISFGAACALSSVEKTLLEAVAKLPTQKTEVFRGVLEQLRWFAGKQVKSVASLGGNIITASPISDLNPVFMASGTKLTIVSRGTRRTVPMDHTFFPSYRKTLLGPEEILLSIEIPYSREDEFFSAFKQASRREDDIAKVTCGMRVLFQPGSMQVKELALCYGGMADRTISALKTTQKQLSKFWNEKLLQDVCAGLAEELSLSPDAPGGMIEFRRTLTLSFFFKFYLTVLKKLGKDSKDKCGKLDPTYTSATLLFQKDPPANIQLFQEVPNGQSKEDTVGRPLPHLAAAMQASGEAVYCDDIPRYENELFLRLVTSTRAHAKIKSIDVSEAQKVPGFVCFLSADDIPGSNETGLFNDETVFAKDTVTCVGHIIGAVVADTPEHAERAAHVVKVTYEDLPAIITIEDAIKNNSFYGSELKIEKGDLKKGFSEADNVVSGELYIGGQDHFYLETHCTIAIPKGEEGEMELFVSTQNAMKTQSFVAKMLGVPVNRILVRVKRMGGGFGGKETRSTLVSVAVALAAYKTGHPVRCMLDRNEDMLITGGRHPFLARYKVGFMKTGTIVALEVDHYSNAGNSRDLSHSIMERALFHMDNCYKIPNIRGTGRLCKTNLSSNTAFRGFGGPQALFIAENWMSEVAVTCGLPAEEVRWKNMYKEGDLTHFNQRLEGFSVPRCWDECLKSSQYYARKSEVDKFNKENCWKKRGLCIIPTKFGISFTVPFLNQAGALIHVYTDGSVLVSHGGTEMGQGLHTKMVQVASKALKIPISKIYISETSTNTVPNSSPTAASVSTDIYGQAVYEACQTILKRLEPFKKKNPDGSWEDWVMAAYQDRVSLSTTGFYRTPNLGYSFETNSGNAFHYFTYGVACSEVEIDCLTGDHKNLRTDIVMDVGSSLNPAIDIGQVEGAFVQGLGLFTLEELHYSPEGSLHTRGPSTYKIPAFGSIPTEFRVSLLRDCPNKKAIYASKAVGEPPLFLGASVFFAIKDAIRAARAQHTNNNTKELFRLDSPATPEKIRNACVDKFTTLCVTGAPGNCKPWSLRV

In this series the target is xanthine oxidoreductase (XOR) (Bos taurus, UniProt P80457). The note with it: read-out: IC50 for inhibition of xanthine oxidoreductase (XOR) activity; reported by Kelley et al., J Biol Chem, 2008.

The structures appear in SMILES notation.

Take `CCCCCCCC/C(=C\CCCCCCCC(=O)O)[N+](=O)[O-]`: the half-maximal inhibitory concentration (IC50) is 0.6 µM.

What is called IC50 is the concentration that inhibits the measured activity by half.
